## Ab-95 light chain CDR variants: yeast mating affinities

Data: MIT Lincoln Laboratory AlphaSeq set, Engelhart et al. 2022, doi:10.1038/s41597-022-01779-4, as distributed in FLAb.

The target is the same throughout: PDVDLGDISGINAS, from the HR2 region of SARS-CoV-2 spike.

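Phage display of a naive human antibody library on the peptide gave the parent. AAYL52 was designed without a model: most single CDR substitutions and a random sample of double and triple ones. The scFvs were displayed on barcoded MATa yeast, the peptide on MATalpha yeast. Pairs that bind mate more often; barcode pairs of the diploids are counted by sequencing. Each replicate has its own calibration line, from reference interactions of the BCL2 family. The assay was run in three technical replicates.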

Ab-95 is the parent antibody, in scFv form: VH, then the linker GGGGSGGGGSGGGGS, then VL. The heavy chain is unchanged in all variants.
VH: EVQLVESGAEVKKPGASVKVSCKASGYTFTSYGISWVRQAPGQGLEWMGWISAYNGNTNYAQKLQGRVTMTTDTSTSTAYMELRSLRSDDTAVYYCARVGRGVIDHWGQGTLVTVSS
VL: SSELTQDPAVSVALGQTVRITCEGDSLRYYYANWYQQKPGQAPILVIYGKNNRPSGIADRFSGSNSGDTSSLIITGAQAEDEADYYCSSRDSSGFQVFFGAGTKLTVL

The whole VL of each variant is written out. Kd is apparent (estimated from mating counts) and averaged on the log scale over replicates with a signal. Smaller is tighter. "not detected" marks a missing value. The strain was present, yet no cells mated with the target were sequenced in any replicate, which points to weak or no binding. In this assay the parent's reference entry averaged 200 nM; its copy inside this library read 180 nM.

VL,Kd,detected,control signals
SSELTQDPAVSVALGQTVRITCEGDSLRYYYANWYQQKPGQAPILVIYGKNNRPAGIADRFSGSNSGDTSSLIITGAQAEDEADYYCSKRDSSGFQQFFGAGTKLTVL,3.1 µM,3 of 3,5 of 9
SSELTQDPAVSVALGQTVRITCEGTSLRYYYANWYQQKPGQAPILVIYFKNNRPSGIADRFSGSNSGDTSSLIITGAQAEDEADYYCSSRDWSGFQVFFGAGTKLTVL,not detected,0 of 3,0 of 9
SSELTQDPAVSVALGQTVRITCEGDSLRYYYANWYQQKPGQAPILVIYGKQNRPSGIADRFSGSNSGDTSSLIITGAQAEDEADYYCSSRDSSGFMVFFGAGTKLTVL,2.6 µM,3 of 3,2 of 9
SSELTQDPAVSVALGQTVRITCMGDSYRYYYANWYQQKPGQAPILVIYGKNNRFSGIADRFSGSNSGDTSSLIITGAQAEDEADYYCSSRDSSGFQVFFGAGTKLTVL,not detected,0 of 3,1 of 9
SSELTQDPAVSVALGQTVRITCEGISLRYYYANWYQQKPGQAPILVIYLKNNRPSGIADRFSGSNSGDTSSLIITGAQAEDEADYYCSSRDSSGFHVFFGAGTKLTVL,7.4 µM,3 of 3,4 of 9
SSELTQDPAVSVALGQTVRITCEGDSLRYYYAVWYQQKPGQAPILVIYKMNNRPSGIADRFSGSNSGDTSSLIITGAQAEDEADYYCSSRDSSGFQVFFGAGTKLTVL,26 µM,2 of 3,2 of 9
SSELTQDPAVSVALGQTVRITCEQDGLRYYYANWYQQKPGQAPILVIYGKNNRASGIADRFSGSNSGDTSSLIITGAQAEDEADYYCSSRDSSGFQVFFGAGTKLTVL,27 nM,3 of 3,3 of 9
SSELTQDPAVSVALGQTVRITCEGDSLRYLYANWYQQKPGQAPILVIYGKNNRPSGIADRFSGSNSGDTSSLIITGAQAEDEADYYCSSCDSCGFQVFFGAGTKLTVL,230 nM,3 of 3,1 of 9
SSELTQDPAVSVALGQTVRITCEGDSLRYYYANWYQQKPGQAPILVIYGKNNMPSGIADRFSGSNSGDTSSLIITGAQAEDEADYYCSSRVSSGDQVFFGAGTKLTVL,8.9 µM,3 of 3,1 of 9
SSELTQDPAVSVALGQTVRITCEGDSLRYSYANWYQQKPGQAPILVIYGKNNRPSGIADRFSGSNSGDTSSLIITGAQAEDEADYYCSSQDSSGFQVKFGAGTKLTVL,9.9 µM,2 of 3,3 of 9

Second part, the sequence after the result:

Kd,detected,control signals,VL
990 nM,3 of 3,2 of 9,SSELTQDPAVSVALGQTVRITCEGDSLRYYKANWYQQKPGQAPILVIYGKANRPFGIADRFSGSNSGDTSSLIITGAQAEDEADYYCSSRDSSGFQVFFGAGTKLTVL
45 µM,2 of 3,4 of 9,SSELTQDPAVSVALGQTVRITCEGDSIRYYYANWYQQKPGQAPILVIYPKNNRPPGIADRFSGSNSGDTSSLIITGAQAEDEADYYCSSRDSSGFQVFFGAGTKLTVL
15 µM,1 of 3,2 of 9,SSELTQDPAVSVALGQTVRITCEGDSLRYYYMNWYQQKPGQAPILVIYLKNNRPSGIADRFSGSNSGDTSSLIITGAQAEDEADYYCSSRDSDGFQVFFGAGTKLTVL
4.4 µM,2 of 3,1 of 9,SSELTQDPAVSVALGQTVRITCEGDSLRYYYANWYQQKPGQAPILVIYGTNNWPSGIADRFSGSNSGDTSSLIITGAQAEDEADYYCSSLDSSGFQVFFGAGTKLTVL
3.4 µM,3 of 3,4 of 9,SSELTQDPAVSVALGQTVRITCESDSMRYYYANWYQQKPGQAPILVIYGKNNRPSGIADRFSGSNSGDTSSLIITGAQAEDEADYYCSSRDSSGDQVFFGAGTKLTVL
2.4 µM,3 of 3,1 of 9,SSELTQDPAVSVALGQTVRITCEEDSLRYYEANWYQQKPGQAPILVIYGKNNRPVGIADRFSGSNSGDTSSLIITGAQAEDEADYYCSSRDSSGFQVFFGAGTKLTVL
1.0 µM,3 of 3,1 of 9,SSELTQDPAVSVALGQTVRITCEGGPLRYYYANWYQQKPGQAPILVIYGKNNRPSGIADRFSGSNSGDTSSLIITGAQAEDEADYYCSSRDSYGFQVFFGAGTKLTVL
not detected,0 of 3,1 of 9,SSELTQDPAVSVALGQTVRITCEGDSLRYYYANWYQQKPGQAPILVIYHKNNRPSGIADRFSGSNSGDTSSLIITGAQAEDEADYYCSSRDSSGGQVGFGAGTKLTVL
not detected,0 of 3,0 of 9,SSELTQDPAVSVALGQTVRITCEGDSLRYYYANWYQQKPGQAPILVIYGKNNRPSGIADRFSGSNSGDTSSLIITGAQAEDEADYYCQSRDLSKFQVFFGAGTKLTVL
4.6 µM,3 of 3,4 of 9,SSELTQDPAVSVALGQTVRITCEGMSLRYYYANWYQQKPGQAPILVIYGKNNRPAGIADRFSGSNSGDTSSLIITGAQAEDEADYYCSSRESSGFQVFFGAGTKLTVL

A selection of 2 entries from above:

{"VL": "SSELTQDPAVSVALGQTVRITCEGDSLRYYYANWYQQKPGQAPILVIYGKNNRPAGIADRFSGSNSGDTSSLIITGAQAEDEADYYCSKRDSSGFQQFFGAGTKLTVL", "Kd": "3.1 µM", "detected": "3 of 3", "control signals": "5 of 9"}
{"VL": "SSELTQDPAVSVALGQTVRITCEGMSLRYYYANWYQQKPGQAPILVIYGKNNRPAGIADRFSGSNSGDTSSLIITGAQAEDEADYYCSSRESSGFQVFFGAGTKLTVL", "Kd": "4.6 µM", "detected": "3 of 3", "control signals": "4 of 9"}

Background: pairings of library AAYL52 with three empty control strains gave a value in 28% of cases (median 8.2 µM, 5th percentile 800 nM). Values in that range, when seen in few replicates, are hard to tell from nonspecific mating. The control count says in how many pairings with the empty strains this scFv gave a signal.